Assay results: patent US10829453B2, “Antagonists of the kappa opioid receptor” (University of Kansas, priority 2014, dated 2020)

By UniProt entry, the sequences of proteins in these tests, tags left out. Where a name states a change or a piece, a line headed by the entry shows the natural chain unless it says otherwise.
UniProt P41145: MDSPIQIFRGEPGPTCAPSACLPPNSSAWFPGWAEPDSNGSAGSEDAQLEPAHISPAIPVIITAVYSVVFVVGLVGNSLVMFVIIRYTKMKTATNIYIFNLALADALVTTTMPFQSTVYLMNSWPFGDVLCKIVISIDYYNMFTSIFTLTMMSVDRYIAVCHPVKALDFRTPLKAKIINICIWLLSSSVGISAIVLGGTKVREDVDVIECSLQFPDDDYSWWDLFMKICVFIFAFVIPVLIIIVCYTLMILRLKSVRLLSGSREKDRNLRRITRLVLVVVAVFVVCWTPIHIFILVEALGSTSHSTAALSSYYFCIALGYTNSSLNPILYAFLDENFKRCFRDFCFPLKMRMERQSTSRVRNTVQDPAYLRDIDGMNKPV

Legend:
hKOR = target: T1, hKOR (Homo sapiens, UniProt P41145); experiment: βArrestin2 recruitment (DiscoveRx PathHunter) assay; type: cell-based; settings: U2OS-hKOR-βarrestin2-DX cells, 1 μM U69,593, n ≥ 3; read-out: IC50 (nM) ± S.E.M. βarr2
T1 construct: host or cells: U2OS (PathHunter U2OS-hKOR-βarrestin2-DX), purchased engineered cell line
Method: (§1) Chinese hamster ovary (CHO) cells were virally transfected to express HA-tagged recombinant human kappa opioid receptors (CHO-hKOR cell line) and maintained in DMEM/F-12 media (Invitrogen) supplemented with 10% fetal bovine serum, 1% penicillin/streptomycin, and 500 μg/ml geneticin as described in Schmid, C. L.; Streicher, J. M.; Groer, C. E.; Munro, T. A.; Zhou, L.; Bohn, L. M. Functional selectivity of 6′-guanidinonaltrindole (6′-GNTI) at kappa opioid receptors in striatal neurons. […] A DiscoveRx PathHunter™ U2OS cell line expressing βarrestin2 and hKOR (U2OS-hKOR-βarrestin2-DX) was purchased from DiscoveRx Corporation (Fremont, Calif.) and maintained MEM with 10% fetal bovine serum, 1% penicillin/streptomycin, 500 μg/ml geneticin and 250 μg/ml hygromycin B. All cells were grown at 37° C. (5% CO2 and 95% relative humidity).
Briefly, 5,000 cells/well were plated overnight in Opti-MEM containing 1% fetal bovine serum, 1% penicillin/streptomycin. Cells were pretreated with antagonist for 15 min at 37° C. followed by the addition of 1 μM U69,593 and a 90 minute incubation at 37° C. PathHunter™ detection reagent was added and cells incubated at room temperature for 60 minutes. Chemiluminescence was detected using a SpectraMax® M5e Multimode Plate Reader (Molecular Devices). βarrestin2 recruitment assays were also performed using an imaging platform (Cellomics) to visulalize translocation of a fluorescent protein tagged βarrestin2 to the membrane of KOR expressing U2OS cells.
(§2) All compounds were run in parallel assays in 2-4 replicates per individual experiment. All studies were performed n≥3 independent experiments in multiple replicates. For determination of antagonist inhibition, each individual experiment was normalized to the percentage of maximal U69,593 stimulation. The efficacy and potency values were obtained from the averages of the nonlinear regression analysis performed on each individual curve and are reported as the mean±S.E.M.

[1] = target: T2, human kappa opioid receptors (Homo sapiens, UniProt P41145); experiment: [35S]GTPγS binding (G protein coupling) assay, antagonism of U69,593; type: biochemical; settings: CHO-hKOR membranes, 100 nM U69,593, n ≥ 3; read-out: IC50 (nM) ± S.E.M. [35S]GTPγS
T2 construct: HA; expressed in transfected cells; host or cells: Chinese hamster ovary (CHO) cells, virally transfected
Method: as §1
Briefly, cells were serum starved for 1 hour and membranes were prepared. Each reaction was performed at room temperature and contained 15 μg of membrane protein, 40 μM GDP, ˜0.1 nM [^35S]GTPγS and increasing concentrations of compounds in assay buffer (50 mM Tris-HCl, pH 7.4, 100 mM NaCl, 5 mM MgCl2, 1 mM EDTA). Directly after the addition of test compounds, 100 nM U69,593 was added to yield a total volume of 200 μL. After 1 hour, reactions were quenched by rapid filtration through GF/B filters and radioactivity was counted with a TopCount NXT high throughput screening microplate scintillation and luminescence counter (PerkinElmer Life Sciences).
as §2

[2] = target: T2, human kappa opioid receptors; experiment: In-cell western ERK1/2 phosphorylation, inhibition of U69,593 induced ERK phosphorylation; type: cell-based; settings: hKOR-CHO cells, 100 nM U69,593, n ≥ 3; read-out: IC50 (nM) ± S.E.M. ERK
Method: as §1
Briefly, hKOR-CHO cells were plated in 384-well plate at 15,000 cells per well and incubated at 37° C. overnight. After an hour serum starve, cells were treated with compound followed by the addition of 100 nM U69,593 and a 10 minute incubation at 37° C. Cells were fixed, permeabilized, blocked, and stained with primary antibodies for phosphorylated ERK1/2 and total-ERK1/2 (1:300 and 1:400, respectively) at 4° C. overnight. Cells then incubated with Li-Cor secondary antibodies (anti-rabbit IRDye800CW, 1:500; anti-mouse IRDye680LT, 1:1500) and imaged with the Odyssey Infrared Imager (Li-Cor Biosciences, Lincoln, Nebr.) at 700 and 800 nm.
as §2

Compound | IC50 (hKOR) | IC50 [1] | IC50 [2]
Cc1cc(C)c(S(=O)(=O)N2CCc3cc(C(=O)NCCN(Cc4ccc(F)cc4)C(C)(C)C)ccc3C2)c(C)c1 [Compound 1k, N-(2-((4-Fluorobenzyl)(tert-butyl)amino)ethyl)-2-(mesitylsulfonyl)-1,2,3,4-tetrahydroisoquinoline-6-carboxamide] | 880 ± 67 nM | 85 ± 20 nM | 1200 nM
Cc1ccc(S(=O)(=O)N2CCc3cc(C(=O)NCCN(Cc4ccc(F)cc4)C(C)C)ccc3C2)cc1 [Compound 1d, N-(2-((4-Fluorobenzyl)(isopropyl)amino)ethyl)-2-tosyl-1,2,3,4-tetrahydroisoquinoline-6-carboxamide] | 478 ± 110 nM | 29.1 ± 7.9 nM | 406 ± 80 nM
Cc1ccc(S(=O)(=O)N2CCc3cc(C(=O)NCCN(Cc4ccc(Cl)cc4)C(C)(C)C)ccc3C2)cc1 [Compound 1l, N-(2-((4-Chlorobenzyl)(tert-butyl)amino)ethyl)-2-tosyl-1,2,3,4-tetrahydroisoquinoline-6-carboxamide] | 84 ± 20 nM | 1.6 ± 0.5 nM | 107 ± 17 nM
Cc1ccc(S(=O)(=O)N2CCc3cc(C(=O)NCCN(Cc4ccc(F)cc4)C(C)(C)C)ccc3C2)cc1 [Compound 1j, N-(2-((4-Fluorobenzyl)(tert-butyl)amino)ethyl)-2-tosyl-1,2,3,4-tetrahydroisoquinoline-6-carboxamide] | 104 ± 32 nM | 3.7 ± 1.2 nM | 76 ± 24 nM
Cc1ccc(S(=O)(=O)N2CCc3cc(C(=O)NCCN(Cc4ccc(Br)cc4)C(C)C)ccc3C2)cc1 [Compound 1f, N-(2-((4-Bromobenzyl)(isopropyl)amino)ethyl)-2-tosyl-1,2,3,4-tetrahydroisoquinoline-6-carboxamide] | 388 ± 85 nM | 19.7 ± 6.6 nM | 258 ± 93 nM
Cc1ccc(S(=O)(=O)NCc2ccc(C(=O)NCCN(Cc3ccccc3)C(C)C)cc2)cc1 [ML140, reference compound] | 403 nM | 138 ± 54 nM | 591 ± 87 nM
Cc1ccc(S(=O)(=O)N2CCc3cc(C(=O)NCCN(Cc4ccc(Cl)cc4)C(C)C)ccc3C2)cc1 [Compound 1e, N-(2-((4-Chlorobenzyl)(isopropyl)amino)ethyl)-2-tosyl-1,2,3,4-tetrahydroisoquinoline-6-carboxamide] | 392 ± 91 nM | 10 ± 1.4 nM | 400 ± 87 nM
